Experimental data reported in patent publication US20110105389A1 (priority 2009, published 2011).

The chains behind the UniProt entries cited, without tags or fusion partners.
UniProt Q92847, whole entry: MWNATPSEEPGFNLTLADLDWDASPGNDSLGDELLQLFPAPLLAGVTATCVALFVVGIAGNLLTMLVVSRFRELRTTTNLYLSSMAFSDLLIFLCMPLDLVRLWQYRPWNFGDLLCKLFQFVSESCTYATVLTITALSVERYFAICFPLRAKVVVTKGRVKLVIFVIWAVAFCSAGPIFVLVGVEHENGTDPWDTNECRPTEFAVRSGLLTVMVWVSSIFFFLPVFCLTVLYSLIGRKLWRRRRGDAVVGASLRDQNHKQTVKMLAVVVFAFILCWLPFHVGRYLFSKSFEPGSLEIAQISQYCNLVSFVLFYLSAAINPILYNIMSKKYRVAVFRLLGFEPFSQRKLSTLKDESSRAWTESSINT

Experiments:
[1] = target: ghrelin receptor (HEK-GHSR1 stable cells) (Homo sapiens, UniProt Q92847); test: Ghrelin receptor inverse agonist assay (HTRF IP-one), Method B4; details: read-out: IC50 (Inverse Agonist Activity), inverse agonist at the ghrelin receptor
[2] = target: human ghrelin receptor (GRLN, growth hormone secretagogue receptor, hGHS-R1a) (Homo sapiens, UniProt Q92847); test: Competitive radioligand binding assay (ghrelin receptor), Method B1; details: Ghrelin receptor binding activity
[3] = target: GHS-R1a receptor (HEK293 cells expressing GHS-R1a receptor) (Homo sapiens, UniProt Q92847); test: Fluorescence functional assay (ghrelin receptor), Method B2, agonist and antagonist mode; details: functional activity as an antagonist at the ghrelin receptor, Methods B2 and B3

Structure (SMILES) | IC50 [1] | IC50 [2] | Antagonist Activity [3] | Ki [2]
CC(C)[C@@H]1NCCOc2ccccc2/C=C/CNC(=O)[C@@H](Cc2ccc(Cl)cc2)NC(=O)[C@H](C(C)O)N(C)C1=O (some centres unmarked) | 10 to 50 nM | 1 to 10 nM | – | –
CC[C@@H]1NC[C@@H](C)Oc2cc(F)ccc2CC[C@@H](C)NC(=O)[C@@H](Cc2c[nH]c3ccccc23)NC(=O)[C@H](C(C)O)N(C)C1=O (some centres unmarked) | 100 to 500 nM | > 500 nM | – | –
CC(C)[C@@H]1NCCOc2cccc(F)c2/C=C/CNC(=O)[C@@H](Cc2ccccc2)NC(=O)[C@H](C(C)O)N(C)C1=O (some centres unmarked) | 100 to 500 nM | 1 to 10 nM | – | –
CC(C)[C@@H]1NCCOc2cccc3c2CC(CC3)CNC(=O)[C@@H](Cc2ccc(Cl)cc2)NC(=O)[C@H](C(C)O)N(C)C1=O (single isomer, unassigned) [1858b] | 100 to 500 nM | 10 to 100 nM | – | –
CC(C)[C@@H]1NCCOc2cccc(F)c2/C=C/CNC(=O)[C@@H](Cc2ccc(F)cc2)NC(=O)[C@H](C(C)O)N(C)C1=O (some centres unmarked) | 100 to 500 nM | 1 to 10 nM | – | –
CC(C)[C@@H]1NCCOc2cccc3c2CC(CC3)CNC(=O)[C@@H](Cc2ccc(C(F)(F)F)cc2)NC(=O)[C@H](C(C)O)N(C)C1=O (single isomer, unassigned) [1860a] | 50 to 100 nM | 1 to 10 nM | – | –
CC[C@@H]1CCc2ccc(O)cc2OCCN[C@@H](C(C)C)C(=O)N(C)[C@@H](C(C)O)C(=O)N[C@H](Cc2c[nH]c3ccccc23)C(=O)N1 (some centres unmarked) | 50 to 100 nM | 1 to 10 nM | – | –
CCC(C)[C@@H]1NCCOc2cccc3c2CC(CC3)CNC(=O)[C@@H](Cc2ccccc2)NC(=O)[C@H](C(C)O)N(C)C1=O (single isomer, unassigned) [1825] | 50 to 100 nM | 1 to 10 nM | – | –
CC[C@@H]1NC[C@@H](C)Oc2cc(F)ccc2CC[C@@H](C)NC(=O)[C@@H](Cc2ccccc2)NC(=O)[C@H](C(C)O)N(C)C1=O (some centres unmarked) | 100 to 500 nM | > 500 nM | – | –
CC[C@@H]1CCc2ccc(O)cc2OCCN[C@@H](C(C)C)C(=O)N(C)[C@@H](C(C)O)C(=O)N[C@H](Cc2ccccc2)C(=O)N1 (some centres unmarked) | 50 to 100 nM | 10 to 100 nM | – | –
CCC(C)[C@@H]1NCCOc2ccccc2[C@H]2C[C@@H]2CNC(=O)[C@@H](Cc2ccccc2)NC(=O)[C@H](C(C)O)N(C)C1=O (some centres unmarked) | – | 10 to 100 nM | C (C = 10-100 nM) | 1 to 10 nM
CC[C@@H]1NCCOc2cccc3c2CC(CC3)CNC(=O)[C@@H](Cc2ccc(Cl)cc2)NC(=O)[C@H](C(C)O)N(C)C1=O (some centres unmarked) | 50 to 100 nM | 10 to 100 nM | – | –
CC(O)[C@H]1C(=O)N[C@H](Cc2ccc(F)cc2)C(=O)N[C@H](C)CCc2ccc(F)cc2OCCN[C@@H](C2(C)CC2)C(=O)N1C (some centres unmarked) | 10 to 50 nM | 1 to 10 nM | – | –
CC(O)[C@H]1C(=O)N[C@H](Cc2c[nH]c3ccc(F)cc23)C(=O)N[C@H](C)CCc2ccccc2OCCN[C@@H](C2CCCCC2)C(=O)N1C (some centres unmarked) | 100 to 500 nM | 1 to 10 nM | – | –
CC(O)[C@H]1C(=O)N[C@H](Cc2c[nH]c3ccccc23)C(=O)NC2CCC(C2)c2ccccc2OCCN[C@@H](C2(C)CC2)C(=O)N1C (single isomer, unassigned) | – | 10 to 100 nM | – | –
CC(C)[C@@H]1NCCOc2ccccc2C2CCC(C2)NC(=O)[C@@H](Cc2ccccc2)NC(=O)[C@H](C(C)O)N(C)C1=O (single isomer, unassigned) [1848a] | 10 to 50 nM | 1 to 10 nM | – | –
CC(O)[C@H]1C(=O)N[C@H](Cc2ccccc2)C(=O)NC/C=C/c2ccccc2O[C@@H](C)CN[C@@H](C2CC2)C(=O)N1C (some centres unmarked) | – | 100 to 500 nM | – | 100 to 500 nM
CC(O)[C@H]1C(=O)N[C@H](Cc2ccccc2)C(=O)NC/C=C/c2ccccc2O[C@H](C)CN[C@@H](C2CC2)C(=O)N1C (some centres unmarked) | – | 100 to 500 nM | – | 10 to 100 nM
CC(O)[C@H]1C(=O)N[C@H](Cc2c[nH]c3ccccc23)C(=O)N[C@@H](C)CCc2ccccc2OCCN[C@@H](C2CCCCC2)C(=O)N1C (some centres unmarked) | – | 100 to 500 nM | – | –
CC[C@@H]1NCCOc2cccc3c2CC(CC3)CNC(=O)[C@@H](Cc2ccc(C(F)(F)F)cc2)NC(=O)[C@H](C(C)O)N(C)C1=O (single isomer, unassigned) [1861a] | – | 10 to 100 nM | – | –
CC(C)[C@@H]1NCCOc2ccccc2C2CCC(C2)NC(=O)[C@@H](Cc2ccccc2)NC(=O)[C@H](C(C)O)N(C)C1=O (single isomer, unassigned) [1848b] | 100 to 500 nM | 10 to 100 nM | – | –
CC[C@@H]1CCc2ccc(F)cc2OCCN[C@@H](CC)C(=O)N(C)[C@@H](C(C)O)C(=O)N[C@H](Cc2ccc(C(F)(F)F)cc2)C(=O)N1 (some centres unmarked) | – | 10 to 100 nM | – | –

Structure (SMILES) | IC50 [1] | IC50 [2] | Antagonist Activity [3] | Ki [2]
CCC(C)[C@@H]1NC[C@H](C)Oc2ccccc2[C@H]2C[C@@H]2CNC(=O)[C@@H](Cc2ccccc2)NC(=O)[C@H](C(C)O)N(C)C1=O (single isomer, unassigned) [1560] | – | > 500 nM | – | 100 to 500 nM
CCC(C)[C@@H]1NCCOc2cccc3c2CC(CC3)CNC(=O)[C@@H](Cc2cccc(F)c2)NC(=O)[C@H](C(C)O)N(C)C1=O (single isomer, unassigned) [1792b] | – | 100 to 500 nM | – | –
CCC(C)[C@@H]1NCCCc2ccccc2[C@H]2C[C@@H]2CNC(=O)[C@@H](Cc2ccccc2)NC(=O)[C@H](C(C)O)N(C)C1=O (single isomer, unassigned) [1559] | – | 100 to 500 nM | – | 100 to 500 nM
CCC(C)[C@@H]1NCCOc2cccc3c2CC(CC3)CNC(=O)[C@@H](Cc2cccc(F)c2)NC(=O)[C@H](C(C)O)N(C)C1=O (single isomer, unassigned) [1792a] | 50 to 100 nM | 1 to 10 nM | – | –
CCC(C)[C@@H]1NCCNc2ccccc2CCCNC(=O)[C@@H](Cc2ccccc2)NC(=O)[C@H](C(C)O)N(C)C1=O (single isomer, unassigned) | – | – | – | 10 to 100 nM
CC(O)[C@H]1C(=O)N[C@H](Cc2ccc(Cl)cc2)C(=O)N[C@@H](C)CCc2ccccc2OCCN[C@@H](C2CC2)C(=O)N1C (some centres unmarked) | – | 100 to 500 nM | – | –
CCC1CCc2cccnc2OCCNC(C2(C)CC2)C(=O)N(C)C(C(C)O)C(=O)NC(Cc2c[nH]c3ccccc23)C(=O)N1 (single isomer, unassigned) [1922b] | – | 10 to 100 nM | – | –
CC[C@@H]1CCc2cccnc2OCCN[C@@H](C2(C)CC2)C(=O)N(C)[C@@H](C(C)O)C(=O)N[C@H](Cc2ccccc2)C(=O)N1 (single isomer, unassigned) | – | 100 to 500 nM | – | –
CC(C)[C@@H]1NCCOc2cccc(F)c2/C=C/CNC(=O)[C@@H]([C@H](C)c2ccccc2)NC(=O)[C@H](C(C)O)N(C)C1=O (some centres unmarked) | 100 to 500 nM | 10 to 100 nM | – | –
CCC(C)[C@@H]1NCCOc2cccc3c2CC(CC3)CNC(=O)[C@@H](Cc2ccccc2)NC(=O)[C@H](C(C)O)N(C)C1=O (single isomer, unassigned) [1826] | – | 100 to 500 nM | – | –
CC(C)[C@@H]1NCCOc2cccc3c2CC(CC3)CNC(=O)[C@@H](Cc2ccc(Cl)cc2)NC(=O)[C@H](C(C)O)N(C)C1=O (single isomer, unassigned) [1858a] | 50 to 100 nM | 1 to 10 nM | – | –
CCC(C)[C@@H]1NCCOc2cccc3c2CC(CC3)CNC(=O)[C@@H](Cc2ccc(F)cc2)NC(=O)[C@H](C(C)O)N(C)C1=O (some centres unmarked) | 50 to 100 nM | 1 to 10 nM | – | –
CCC1CCc2cccnc2OCCNC(C2(C)CC2)C(=O)N(C)C(C(C)O)C(=O)NC(Cc2c[nH]c3ccccc23)C(=O)N1 (single isomer, unassigned) [1922a] | 50 to 100 nM | 1 to 10 nM | – | –
CC[C@@H]1NCCOc2ccccc2C2CCC(C2)NC(=O)[C@@H](Cc2ccccc2)NC(=O)[C@H](C(C)O)N(C)C1=O (some centres unmarked) | – | 10 to 100 nM | – | –
CCC(C)[C@@H]1NCCOc2ccccc2CC[C@H](C)NC(=O)[C@@H](Cc2ccc(Cl)cc2)NC(=O)[C@H](C(C)O)N(C)C1=O (some centres unmarked) | – | 100 to 500 nM | – | –
CCC(C)[C@@H]1NC[C@@H](C)Oc2ccccc2[C@H]2C[C@@H]2CNC(=O)[C@@H](Cc2ccccc2)NC(=O)[C@H](C(C)O)N(C)C1=O (some centres unmarked) | – | 10 to 100 nM | – | 10 to 100 nM
CC(C)[C@@H]1NCCOc2ccccc2C2CCC(C2)NC(=O)[C@@H](Cc2ccc(F)cc2)NC(=O)[C@H](C(C)O)N(C)C1=O (single isomer, unassigned) [1903b] | – | 100 to 500 nM | – | –
C[C@H]1C(=O)N[C@H](Cc2ccc(F)cc2)C(=O)NCCCc2cccc3c2OC(CN[C@@H](C2CC2)C(=O)N1C)C3 (some centres unmarked) | – | 100 to 500 nM | – | 100 to 500 nM
CC[C@@H]1CCc2ccc(F)cc2O[C@H](C)CN[C@@H](CC)C(=O)N(C)[C@@H](C(C)O)C(=O)N[C@H](Cc2c[nH]c3ccccc23)C(=O)N1 (some centres unmarked) | – | > 500 nM | – | –
CC[C@@H]1NCCOc2cccc3c2CC(CC3)CNC(=O)[C@@H](Cc2ccc(C(F)(F)F)cc2)NC(=O)[C@H](C(C)O)N(C)C1=O (single isomer, unassigned) [1861b] | – | 100 to 500 nM | – | –
CCC(C)[C@@H]1NC[C@H](C)Oc2ccccc2[C@H]2C[C@@H]2CNC(=O)[C@@H](Cc2ccccc2)NC(=O)[C@H](C(C)O)N(C)C1=O (single isomer, unassigned) [1337] | – | 10 to 100 nM | – | 10 to 100 nM
CC(O)[C@H]1C(=O)N[C@H](Cc2ccccc2)C(=O)NCCCc2cccc3c2OC(CN[C@@H](C2CC2)C(=O)N1C)C3 (some centres unmarked) | – | > 500 nM | – | > 500 nM
